Source: ChEMBL document CHEMBL5120947, “General Pharmacological Activation Mechanism of K+ Channels Bypassing Channel Gates” (J Med Chem, 2022)
Active and inactive are the calls of the source.

The chains behind the UniProt entries cited, without tags or fusion partners. Where a name states a change or a piece, a line headed by the entry shows the natural chain unless it says otherwise.
UniProt Q12791: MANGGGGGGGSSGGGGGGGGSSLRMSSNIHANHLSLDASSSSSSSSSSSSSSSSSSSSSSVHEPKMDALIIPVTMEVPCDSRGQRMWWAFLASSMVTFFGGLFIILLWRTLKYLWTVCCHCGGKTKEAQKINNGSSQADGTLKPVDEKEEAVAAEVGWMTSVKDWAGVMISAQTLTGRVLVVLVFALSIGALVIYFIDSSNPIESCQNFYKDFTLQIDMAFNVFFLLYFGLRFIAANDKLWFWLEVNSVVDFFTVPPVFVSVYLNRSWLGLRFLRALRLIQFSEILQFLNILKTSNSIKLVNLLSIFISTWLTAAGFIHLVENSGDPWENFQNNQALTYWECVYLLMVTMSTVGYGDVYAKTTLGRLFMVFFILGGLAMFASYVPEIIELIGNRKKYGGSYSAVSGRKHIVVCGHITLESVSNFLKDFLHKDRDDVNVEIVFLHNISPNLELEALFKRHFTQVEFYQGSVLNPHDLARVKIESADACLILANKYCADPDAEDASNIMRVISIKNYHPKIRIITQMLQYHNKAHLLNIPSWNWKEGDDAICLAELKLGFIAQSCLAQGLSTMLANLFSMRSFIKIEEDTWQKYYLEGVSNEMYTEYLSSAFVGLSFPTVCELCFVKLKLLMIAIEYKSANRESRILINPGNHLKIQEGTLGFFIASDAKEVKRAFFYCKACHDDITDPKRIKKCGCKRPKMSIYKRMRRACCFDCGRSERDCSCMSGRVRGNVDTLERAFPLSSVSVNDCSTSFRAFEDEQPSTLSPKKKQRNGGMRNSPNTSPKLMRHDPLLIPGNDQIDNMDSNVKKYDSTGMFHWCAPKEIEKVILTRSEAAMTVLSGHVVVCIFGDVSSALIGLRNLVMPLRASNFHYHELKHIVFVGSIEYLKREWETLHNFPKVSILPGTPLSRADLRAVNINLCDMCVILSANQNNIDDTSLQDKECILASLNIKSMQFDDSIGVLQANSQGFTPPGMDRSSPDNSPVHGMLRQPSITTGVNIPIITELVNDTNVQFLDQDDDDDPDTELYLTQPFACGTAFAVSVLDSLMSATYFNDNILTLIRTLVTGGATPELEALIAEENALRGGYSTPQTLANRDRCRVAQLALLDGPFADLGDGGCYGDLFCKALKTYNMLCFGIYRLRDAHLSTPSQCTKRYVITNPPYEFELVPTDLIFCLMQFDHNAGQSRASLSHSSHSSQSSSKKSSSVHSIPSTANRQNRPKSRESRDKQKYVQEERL
UniProt P16389, whole entry: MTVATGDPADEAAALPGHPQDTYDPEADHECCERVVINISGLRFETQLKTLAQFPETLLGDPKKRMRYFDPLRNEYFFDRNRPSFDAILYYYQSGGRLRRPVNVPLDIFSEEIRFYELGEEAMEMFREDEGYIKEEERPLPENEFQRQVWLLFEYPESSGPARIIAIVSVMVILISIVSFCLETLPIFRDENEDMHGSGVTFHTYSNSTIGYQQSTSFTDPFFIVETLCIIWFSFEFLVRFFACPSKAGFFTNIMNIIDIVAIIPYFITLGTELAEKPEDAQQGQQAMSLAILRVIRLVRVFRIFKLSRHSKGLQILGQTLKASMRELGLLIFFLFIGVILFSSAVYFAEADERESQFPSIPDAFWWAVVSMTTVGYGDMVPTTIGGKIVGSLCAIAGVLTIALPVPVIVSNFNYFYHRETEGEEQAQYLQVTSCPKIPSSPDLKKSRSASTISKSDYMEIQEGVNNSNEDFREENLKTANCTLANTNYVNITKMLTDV

Assays:
Assay type in all cases: cell-based
Settings in all cases: filed as activator
[1] = biological target: Calcium-activated potassium channel subunit alpha-1 (Homo sapiens) (UniProt Q12791); experiment: Activation of human BKca expressed in HEK293T cells at 10 uM by patch clamp electrophysiology method
[2] = biological target: Potassium voltage-gated channel subfamily A member 2 (Homo sapiens) (UniProt P16389); experiment: Activation of human Kv1.2 expressed in HEK293T cells at 10 uM by patch clamp electrophysiology method
[3] = biological target: T1, ATP-sensitive inward rectifier potassium channel 10 (Homo sapiens) (UniProt P78508); experiment: Activation of human Kir4.1 expressed in HEK293T cells at 10 uM by patch clamp electrophysiology method
T1 sequence (whole entry): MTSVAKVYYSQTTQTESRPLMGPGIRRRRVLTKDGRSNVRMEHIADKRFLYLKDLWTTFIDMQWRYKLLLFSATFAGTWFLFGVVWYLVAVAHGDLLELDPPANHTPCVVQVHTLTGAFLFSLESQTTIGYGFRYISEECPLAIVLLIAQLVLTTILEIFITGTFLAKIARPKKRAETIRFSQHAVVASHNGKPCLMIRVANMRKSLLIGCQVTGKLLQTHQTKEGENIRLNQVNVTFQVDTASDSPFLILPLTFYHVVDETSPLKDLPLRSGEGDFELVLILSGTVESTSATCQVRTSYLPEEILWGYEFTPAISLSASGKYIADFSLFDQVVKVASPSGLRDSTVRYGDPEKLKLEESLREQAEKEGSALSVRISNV

[4] = biological target: T2, Potassium channel subfamily K member 2 (Homo sapiens) (UniProt O95069); experiment: Activation of human TREK-1 channel expressed in CHO cells at 10 uM by patch clamp electrophysiology method
T2 sequence (whole entry): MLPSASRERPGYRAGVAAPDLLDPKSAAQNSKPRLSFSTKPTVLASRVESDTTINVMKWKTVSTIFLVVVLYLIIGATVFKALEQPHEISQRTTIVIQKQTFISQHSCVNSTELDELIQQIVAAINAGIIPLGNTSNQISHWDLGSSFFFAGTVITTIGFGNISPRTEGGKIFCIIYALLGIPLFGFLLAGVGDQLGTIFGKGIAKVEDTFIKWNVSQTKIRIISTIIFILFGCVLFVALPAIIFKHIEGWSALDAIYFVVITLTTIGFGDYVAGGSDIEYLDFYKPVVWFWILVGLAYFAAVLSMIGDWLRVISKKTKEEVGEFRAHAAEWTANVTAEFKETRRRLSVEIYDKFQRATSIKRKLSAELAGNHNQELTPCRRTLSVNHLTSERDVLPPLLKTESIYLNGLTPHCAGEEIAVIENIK

Measured: Activity

Cc1ccc(CSCc2nnc(SCC(=O)Nc3ccc(Br)cc3Br)n2C)cc1
active: [1] | [2] | [3] | [4]
